The text below walks through data of ChEMBL document CHEMBL1201862, “PubChem BioAssay data set” (2004).

Some of the results follow. Rule as the data show it, for most assays here: active = GI50 up to about 1.1 µM and inactive = higher. These assays gave more results; the selection is not random.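 Where inhibition never reached the appropriate level, the endpoint shown equals the highest concentration tested. Otherwise, values were interpolated linearly from a five-concentration, 48-hour dose response in 96-well plates. Abbreviation: GI50, concentration required for 50% inhibition of growth.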 For some of these results: Potency and affinity values are given separately.

Among the test systems are EKVX; HCC 2998; HCT-116; HCT-15; HL-60; HOP-18; HOP-62; HT-29; IGROV-1; K562; KM-20L2; KM12; LOX IMVI; LXFL 529; M14; M19-MEL; DMS-273; HOP-92; DU-145; Hs-578T.
Assay in all cases: NCI tumour cell line growth inhibition, 48 h

Regarding `Cc1[nH]c2c(C)c([N+](=O)[O-])c(C)c([N+](=O)[O-])c2c1[N+](=O)[O-]`, the GI50 is inactive: 4.24 µM with EKVX; inactive: 4.19 µM in the assay on HCC 2998; inactive: 5.98 µM in the assay with HCT-116; inactive: 4.98 µM in the assay with HCT-15; inactive: 3.89 µM with HL-60; inactive: 2.39 µM with HOP-18. Further, the GI50 is inactive: 11.9 µM in the assay with HOP-62; inactive: 7.73 µM in the assay with HT-29; inactive: 5.11 µM in the assay on IGROV-1; inactive: 5.83 µM in the assay with K562; inactive: 6.79 µM with KM-20L2; inactive: 10.5 µM in the assay with KM12. For the same compound, the GI50 in the assay with LOX IMVI is inactive: 4.61 µM; in the assay with LXFL 529 it was inactive: 9.51 µM; with M14, inactive: 13.4 µM; in the assay with M19-MEL, inactive: 10 µM.

In the case of `O=C1Nc2ccc([N+](=O)[O-])cc2/C1=N/Nc1ccc([N+](=O)[O-])cc1[N+](=O)[O-]`, the GI50 is inactive: 18 µM with DMS-273; inactive: 37.6 µM with EKVX; inactive: 10 µM with HCC 2998; inactive: 23.7 µM in the assay on HCT-15; inactive: 18.2 µM in the assay on HOP-62; inactive: 19.3 µM in the assay with HOP-92. For the same compound, the GI50 is inactive: 10 µM in the assay with HT-29; inactive: 51.6 µM in the assay with IGROV-1; inactive: 36.1 µM in the assay on K562; inactive: 24.2 µM with KM-20L2; inactive: 27.8 µM in the assay with KM12; inactive: 28.1 µM in the assay with LOX IMVI. For the same compound, the results for the GI50 in the assay with LXFL 529, in the assay with M14 and in the assay on M19-MEL were inactive: 37.3 µM, inactive: 23.4 µM and inactive: 28.8 µM, respectively.

With `O=[N+]([O-])C1([N+](=O)[O-])COCOC1`, the GI50 in the assay with DU-145 was inactive: > 100 µM; with EKVX, inactive: > 100 µM; in the assay on HCC 2998 it was inactive: > 100 µM; in the assay on HCT-116, inactive: > 100 µM; in the assay on HCT-15, inactive: 28.8 µM; in the assay on HL-60, inactive: 38.3 µM. The GI50 in the assay with HOP-62 is inactive: > 100 µM; with HOP-92 it was inactive: 17.6 µM; in the assay on HT-29 it was inactive: 42.3 µM; in the assay on Hs-578T, inactive: > 100 µM; in the assay with IGROV-1, inactive: 27.5 µM; in the assay on K562, inactive: 24.5 µM. Also, the GI50 in the assay with KM12 is inactive: 61.9 µM; with LOX IMVI, inactive: > 100 µM; with M14, inactive: 38.7 µM.

Consider `ClCCSc1c2ccccc2nc2ccccc12`, for which the GI50 was inactive: 3.84 µM in the assay on DU-145; inactive: 14.8 µM in the assay with EKVX; inactive: 20.8 µM in the assay on HCC 2998; inactive: 5.16 µM in the assay on HCT-116; inactive: 8.67 µM with HCT-15; inactive: 4.11 µM with HL-60. Further, the GI50 in the assay with HOP-62 is inactive: 20.2 µM; with HOP-92, inactive: 4.39 µM; in the assay on HT-29, inactive: 4.12 µM; with Hs-578T it was inactive: 2.77 µM; in the assay on IGROV-1, inactive: 4.69 µM; in the assay with K562 it was inactive: 15.1 µM. Further, the GI50 in the assay on KM12 was inactive: 5.18 µM; in the assay with LOX IMVI, inactive: 3.81 µM; in the assay on M14, inactive: 11.1 µM.

Turning to `O[C@H]1[C@@H](O)CC2CCN3Cc4cc5c(cc4[C@H]1C23)OCO5` (stereo partly specified), the GI50 in the assay on DMS-273, with EKVX, in the assay with HCC 2998, in the assay on HCT-116, with HCT-15 and in the assay on HL-60 was inactive: > 100 µM throughout. Further, the GI50 in the assay with HOP-62, with HT-29, with IGROV-1, in the assay on K562, in the assay on KM-20L2 and in the assay with KM12 was inactive: > 100 µM each time. In addition, the GI50 with LOX IMVI, in the assay on LXFL 529, with M14 and with M19-MEL was inactive: > 100 µM each time.

`CCCC[S+](N)(=O)CCC(N)P(=O)(O)O` (stereo unspecified): the GI50 with DU-145, in the assay on HCC 2998, in the assay with HCT-116, in the assay on HCT-15, in the assay on HL-60 and with HOP-62 was inactive: > 100 µM throughout. Further, the GI50 with HOP-92 was inactive: 92.3 µM; in the assay with HT-29 it was inactive: > 100 µM; with Hs-578T, inactive: > 100 µM; in the assay on IGROV-1 it was inactive: > 100 µM; in the assay with K562, inactive: > 100 µM; in the assay on LOX IMVI it was inactive: 37 µM. In addition, in the assay on M14, the GI50 is inactive: 77.1 µM.

For the compound `CC1=CC2OC3CC(OC(=O)/C=C/C=C/C(OCCC4=CC(=O)OC4)C(C)O)C(C)(C2(CO)CC1)C31CO1` (stereo unspecified), the GI50 in the assay with HL-60 was inactive: 1.98 µM.

In the case of `Cc1ccc2ccc3ccc4ccccc4c3c2c1.O=C1c2cc([N+](=O)[O-])ccc2-c2c1cc([N+](=O)[O-])cc2[N+](=O)[O-]`, the GI50 was active: 1.09 µM in the assay with DU-145; inactive: 8.02 µM in the assay on EKVX; active: 1.03 µM with HCC 2998; active: 1.04 µM in the assay on HCT-116; active: 0.871 µM in the assay on HCT-15; active: 1.06 µM with HL-60. Moreover, the GI50 was inactive: 6.03 µM in the assay on HOP-62; inactive: 10.8 µM in the assay with HOP-92; inactive: 1.49 µM with HT-29; inactive: 3.22 µM in the assay on Hs-578T; active: 0.644 µM in the assay with IGROV-1; inactive: 1.26 µM with K562. Besides, the GI50 in the assay with KM12 is inactive: 1.14 µM; with LOX IMVI, inactive: 1.3 µM; in the assay on M14 it was inactive: 6.56 µM.

On to `Nc1nc2c(ncn2CCN(CCCl)CCCl)c(=O)[nH]1`, for which the GI50 in the assay on DMS-273, with EKVX, in the assay with HCC 2998, in the assay on HCT-116, with HCT-15 and in the assay on HL-60 was inactive: > 100 µM in each case. The GI50 in the assay with HOP-18, in the assay on HOP-62, with HOP-92, in the assay on HT-29, with IGROV-1 and in the assay with K562 was inactive: > 100 µM each time. For the same compound, the GI50 in the assay with KM-20L2, in the assay with KM12, in the assay with LXFL 529, in the assay with M14 and with M19-MEL was inactive: > 100 µM throughout.

For the compound `CCCCCCCCCCCCCNCC(C)O` (stereo unspecified), the GI50 in the assay with DU-145 was inactive: 15.3 µM; in the assay on EKVX it was inactive: 10.2 µM; in the assay with HCC 2998, inactive: 3.05 µM; with HCT-116, inactive: 13.5 µM; in the assay on HCT-15 it was inactive: 12.8 µM; in the assay on HL-60, inactive: 17.4 µM. The GI50 in the assay on HOP-62 is inactive: 22.8 µM; in the assay on HOP-92, inactive: 2.52 µM; in the assay on HT-29, inactive: 2.46 µM; in the assay on Hs-578T, inactive: 18.4 µM; in the assay on IGROV-1 it was inactive: 12 µM; in the assay with K562, inactive: 4.63 µM. For the same compound, the results for the GI50 with KM12, in the assay on LOX IMVI and with M14 were inactive: 14.9 µM, inactive: 7.85 µM and inactive: 11 µM, respectively.

As for `COc1ccc(C[N+](C)(CCCl)CCCl)c([N+](=O)[O-])c1`, the GI50 is inactive: > 100 µM in the assay on DU-145; inactive: > 100 µM in the assay with EKVX; inactive: > 100 µM in the assay on HCT-116; inactive: > 100 µM with HCT-15; inactive: 78.7 µM with HL-60; inactive: > 100 µM with HOP-62. Also, the GI50 in the assay with HOP-92, in the assay on HT-29, in the assay on Hs-578T, in the assay with IGROV-1, with K562 and with KM12 was inactive: > 100 µM throughout. Further, the GI50 in the assay on LOX IMVI and with M14 was inactive: > 100 µM throughout.

On to `Cc1ccc([N+](=O)[O-])c(C[N+](C)(CCCl)CCCl)c1`, for which the GI50 is inactive: 6.67 µM in the assay on DU-145; inactive: 22.3 µM in the assay on EKVX; inactive: 20.9 µM with HCT-116; inactive: 13.7 µM in the assay on HCT-15; inactive: 17.2 µM with HL-60; inactive: 17.7 µM with HOP-62. Moreover, the GI50 in the assay on HOP-92 was inactive: 20 µM; in the assay with HT-29, inactive: 18.2 µM; in the assay on Hs-578T it was inactive: 56 µM; in the assay on IGROV-1 it was inactive: 19.8 µM; with K562, inactive: 16.7 µM; in the assay on KM12, inactive: 14.8 µM. The GI50 is inactive: 22.2 µM in the assay on LOX IMVI and inactive: 12.8 µM in the assay on M14.
